A word on the pIC50: it is the IC50 on a negative log10 scale, so that one unit is a factor of ten.

Chains of the proteins cited; added tags and fusions are not shown. Residues count along the entry.
UniProt Q07817, 1-212 limits assumed: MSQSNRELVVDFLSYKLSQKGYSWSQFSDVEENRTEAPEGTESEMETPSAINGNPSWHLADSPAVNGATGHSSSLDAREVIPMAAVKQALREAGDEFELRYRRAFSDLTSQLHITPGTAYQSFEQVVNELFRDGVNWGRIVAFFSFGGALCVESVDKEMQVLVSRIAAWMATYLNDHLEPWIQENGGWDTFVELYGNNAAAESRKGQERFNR
UniProt Q07812, whole entry: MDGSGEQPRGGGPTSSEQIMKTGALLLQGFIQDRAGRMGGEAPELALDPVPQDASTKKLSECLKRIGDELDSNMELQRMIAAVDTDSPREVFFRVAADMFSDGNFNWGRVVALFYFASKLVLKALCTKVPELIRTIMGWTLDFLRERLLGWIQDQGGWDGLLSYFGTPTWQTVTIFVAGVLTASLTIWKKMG

pEC50, pIC50: −log10 of the molar value.

The source of these data is patent US11382898B2, “BAX activators and uses thereof in cancer therapy” (Albert Einstein College of Medicine, priority 2017, dated 2022).

One data set deals with T1, BCL-XL (Homo sapiens, UniProt Q07817).
T1 construct: BCL-XLΔC, MCL-1ΔNΔC, BFL-1/A1ΔC: 200 nM; made in house; host or cells: Escherichia coli
As to the kind of experiment: Competitive fluorescence polarization assay, FITC-BIM SAHBA2 bound to BCL-XL. Format: binding. The protocol:
(§1) Fluorescence polarization assays (FPA) were performed as previously described (Gavathiotis et al., 2012). Firstly, direct binding isotherms were generated by incubating FITC-BIM SAHBA2 (50 nM) with serial dilutions of full-length BAX, BCL-XLΔC, MCL-1ΔNΔC, BFL-1/A1ΔC and fluorescence polarization was measured at 20 minutes on a F200 PRO microplate reader (TECAN). Subsequently, in competition assays, a serial dilution of small molecule or acetylated BIM SAHBA2 (Ac-BIM SAHB) was combined with FITC-BIM SAHBA2 (50 nM), followed by the addition of recombinant protein at ˜EC75 concentration, as determined by the direct binding assay (BAX: 500 nM; BCL-XLΔC, MCL-1ΔNΔC, BFL-1/A1ΔC: 200 nM).
(§2) A competitive fluorescence polarization assay that evaluates the capacity of compounds to compete a fluorescein-labeled stapled peptide of the BIM BH3 helix, FITC-BIM SAHBA2, from the BAX trigger site, was used to determine the binding potency (Gavathiotis et al., 2008; Gavathiotis et al., 2012).
In general terms: In fluorescence polarisation assays a small probe gives low polarisation when free and higher when bound to something large.

The test system of another data set is MCL-1. The data set can be described thus: Competitive fluorescence polarization assay, FITC-BIM SAHBA2 bound to MCL-1. The class given is binding, Human. The protocol: as §1, §2
Data set [1] has as its system BAX KO MEF, DKO MEF, wild type MEF, H9c2 myocytes and 3T3 fibroblasts.
Data set [2] deals with primary human AML and healthy control samples.
The target in data set [3] is T2, BAX (Homo sapiens, UniProt Q07812).
Data set [4] relates to human acute myeloid leukemia cell lines HL60, THP-1, NB4, OCI-AML3 and U937. As to the kind of experiment: Cell viability assay of AML cell lines (CellTiter-Glo). Background: ATP-based viability assays read luminescence as a measure of living cells.
Data set [5] concerns the target T2, BAX. As to the kind of experiment: Competitive fluorescence polarization assay, FITC-BIM SAHBA2 from the BAX trigger site. The class given is binding. Details: with serial dilutions of full-length BAX, BCL-XLΔC, MCL-1ΔNΔC, BFL-1/A1ΔC; made in house; host or cells: Escherichia coli. The protocol:
as §1, §2

For the compound `O=C1C(=NNc2nccs2)C(c2ccccc2)=NN1c1nc(-c2ccccc2)cs1` [BTSA1, 5-phenyl-2-(4-phenylthiazol-2-yl)-4-(2-(thiazol-2-yl)hydrazono)-2,4-dihydro-3H-pyrazol-3-one], the “capacity to compete FITC-BIM SAHBA2 from BCL-XL” value on BCL-XL is listed as “no capacity to compete”. Further, the “capacity to compete FITC-BIM SAHBA2 from MCL-1” value in the data set on MCL-1 is reported as “no capacity to compete”. In data set [1], the “response of BAX-expressing non-leukemia cells to treatment” value was “resistance” and the “response of cells with no BAX expression to treatment” value was “resistance”. In addition, in data set [2], the “activity in leukemic stem cell-enriched fractions (CD34+CD38−)” value was “effective”, the “apoptosis in primary AML blast cells” value was “induced dose-dependent apoptosis” and the “apoptosis of primary bone marrow CD34+CD38− cells from healthy donors” value is recorded as “did not affect apoptosis”. In addition, the “effect on mitochondria in the absence of BAX” value at BAX [3] is listed as “no effect”. Moreover, the pEC50 in data set [4] (Homo sapiens, 24 h, read-out: mean effective concentration (EC50), viability) is 5.40 to 6.00. Moreover, the “time to substantial cell death activity” value in data set [4] (viability at different time points, 5 μM) is on record as at most 6 h. The compound further had a pIC50 on BAX [5] of 6.60.
